Measurements from patent publication US20240398829A1, “A COBALT-[…] AMINO ACID COMPLEX AND ITS USE FOR TREATING CANCER” (AMELIO BIOTECH CO., LTD., priority 2021, published 2024).

Experiments:
[1] = tested on: zebrafish embryos
[2] = tested on: zebrafish liver; test: Hepatoxicity assay in Tg(fabp10a:EGFP-mCherry) embryos; conditions: 100 μM, embryos treated from 3 dpf

Substance: cobalt-containing glutamic acid (COGA) complex
- mortality rate of embryos ([1]; at 0.01×(1 μM), 0.1×(10 μM) and 1×(100 μM), tested range 1-2000 μM): lowest
- embryonic toxicity ([1]; conclusion): no hepatoxicity and embryonic toxicity
- liver toxicity (liver size vs DMSO control) [2]: no liver toxicity
